Results as given in patent US8188128B2, “Opioid receptor subtype-selective agents” (The University of Medicine and Dentistry of New Jersey, priority 2005, dated 2012).

Protein sequences, listed by entry. Tags and fused reporters are not part of them.
UniProt P42866, whole entry: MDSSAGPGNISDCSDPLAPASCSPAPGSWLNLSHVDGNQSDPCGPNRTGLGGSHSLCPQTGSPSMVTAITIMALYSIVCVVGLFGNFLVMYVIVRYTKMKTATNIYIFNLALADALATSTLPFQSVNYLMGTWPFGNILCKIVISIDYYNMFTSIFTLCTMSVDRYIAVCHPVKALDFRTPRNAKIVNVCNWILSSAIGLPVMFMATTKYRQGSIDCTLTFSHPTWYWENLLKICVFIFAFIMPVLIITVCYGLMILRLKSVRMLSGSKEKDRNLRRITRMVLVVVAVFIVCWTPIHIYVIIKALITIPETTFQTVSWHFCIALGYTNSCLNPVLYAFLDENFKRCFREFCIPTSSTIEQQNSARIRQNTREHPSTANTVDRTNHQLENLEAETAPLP

Biological target: T1, mu receptor (Mus musculus, UniProt P42866)
T1 construct: expressed in transfected cells
Assay: Opioid receptor binding assay, μ, [3H]DAMGO, HEK 293 cell membranes
Set-up: species or system rat
Details: inhibition of [3H]DAMGO, HEK 293 cell membrane; compounds of Formula I
Protocol: Receptor binding assay: Cell membrane preparations were obtained from HEK 293-stable transfectants expressing either the murine δ or μ or the human κ receptor. Opioid receptor binding assays were conducted in duplicate on membrane preparations that had been resuspended in 50 mM Tris-HCl, pH 7.5, utilizing [^3H]DPDPE, [^3H]DAMGO and [^3H]U69593 as radiologand for δ, μ, and κ respectively and 10 μM cyclazocine to define non-specific binding. Following a 1 hour incubation on ice, binding assays were terminated by filtration through Whatman GF/B filters. Filters were soaked in Ecoscint liquid scintillation solution (National Diagnostics, Manville, N.J.) and filter-bound radioactivity was measured using a Packard Tri-Carb 2100 TR liquid scintillation analyzer. Receptor binding data was analyzed by non-linear regression of saturation and competition curves using Prisim 3.0 software (GraphPad Software, San Diego, Calif.). Protein concentrations were determined with the Bio-Rad protein using bovine serum albumin as the standard.

IC50: > 10000 nM
SMILES: CN(C)Cc1nc(-c2ccc(C(C)(C)C)cc2)n(-c2cccc(O)c2)n1 [DOP108, 3-[5-(4-tert-Butyl-phenyl)-3-dimethylaminomethyl-[1,2,4,]triazole-1-yl]-phenol]
